CycPeptMPDB entries from one study

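Lipid, pH, incubation time, direction and concentration are not recorded in the data file. The list need not hold all peptides of the study. Peptides that the database sets to -10, its floor, are left out.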

PAMPA is the parallel artificial membrane permeability assay, which has no cells and reads passive diffusion. Permeability is in 10^-6 cm/s, converted from the database's log10 values; higher is more permeable.

SMILES | PAMPA (10^-6 cm/s)
CC(C)C[C@H]1NC(=O)[C@H](CC(C)C)N(C)C(=O)[C@H](C)N(C)C(=O)[C@H](Cc2ccccc2)NC(=O)CN(Cc2ccccc2)C(=O)[C@@H]2CCCN2C1=O | 13
CC(C)C[C@@H]1NC(=O)[C@H](C)NC(=O)[C@H]2CCCN2C(=O)[C@H](Cc2ccccc2)NC(=O)[C@@H](CC(C)C)NC(=O)[C@H]2CCCN2C(=O)[C@H](CC(C)C)NC1=O | 1.2
CC(C)C[C@@H]1C(=O)N[C@H](CC(C)C)C(=O)N2CCC[C@@H]2C(=O)N(C)[C@@H](CC(C)C)C(=O)N[C@@H](Cc2ccccc2)C(=O)N2CCC[C@H]2C(=O)N[C@@H](Cc2ccccc2)CC(=O)N1C | 3.5
CC(C)C[C@H]1NC(=O)[C@H](CC(C)C)N(C)C(=O)[C@@H](C)NC(=O)[C@H]2CCCN2C(=O)[C@H](Cc2ccccc2)NC(=O)[C@H](CC(C)C)N(C)C(=O)[C@H]2CCCN2C1=O | 1.6
CCCN1CC(=O)N(C)[C@H](CC(C)C)C(=O)N[C@H](CC(C)C)C(=O)N2CCC[C@H]2C(=O)N[C@H](CC(C)C)C(=O)N[C@@H](Cc2ccccc2)C(=O)N2CCC[C@H]2C1=O | 1.4
CC(C)C[C@@H]1C(=O)N2CCC[C@H]2C(=O)N(C)[C@@H](CC(C)C)C(=O)N[C@@H](Cc2ccccc2)C(=O)N2CCC[C@@H]2C(=O)N[C@H](C)C(=O)N(C)[C@@H](CC(C)C)C(=O)N1C | 5.9
CC(C)C[C@@H]1NC(=O)[C@H](C)NC(=O)[C@H](Cc2ccccc2)NC(=O)[C@H](CC(C)C)N(C)C(=O)[C@H]2CCCN2C(=O)[C@H](CC(C)C)N(C)C1=O | 8.5
CC(C)C[C@@H]1C(=O)N[C@@H](Cc2ccccc2)C(=O)N2CCC[C@H]2C(=O)N[C@@H](Cc2ccccc2)CC(=O)N(C)[C@@H](CC(C)C)C(=O)N[C@H](CC(C)C)C(=O)N2CCC[C@@H]2C(=O)N1C | 3.9
CC(C)C[C@@H]1C(=O)N[C@@H](Cc2ccccc2)C(=O)N[C@@H](Cc2ccccc2)CC(=O)N(C)[C@@H](CC(C)C)C(=O)N(Cc2ccccc2)CC(=O)N2CCC[C@@H]2C(=O)N1C | 3.9
CC(C)C[C@@H]1C(=O)N[C@@H](Cc2ccccc2)C(=O)N[C@@H](Cc2ccccc2)CC(=O)N(C)[C@@H](CC(C)C)C(=O)N(Cc2ccccc2)CC(=O)N2CCC[C@H]2C(=O)N1C | 4.7
CC(C)C[C@@H]1NC(=O)[C@H](CC(C)C)N(C)C(=O)[C@@H](C)NC(=O)[C@@H]2CCCN2C(=O)[C@H](Cc2ccccc2)NC(=O)[C@H](CC(C)C)N(C)C(=O)[C@@H]2CCCN2C1=O | 2.5
CC(C)C[C@@H]1C(=O)N(C)[C@@H](CC(C)C)C(=O)N2CCC[C@H]2C(=O)N(C)[C@@H](CC(C)C)C(=O)N[C@@H](Cc2ccccc2)C(=O)N[C@@H](Cc2ccccc2)CC(=O)N1C | 6.5
CCCN1CC(=O)N[C@H](CC(C)C)C(=O)N(Cc2ccccc2)CC(=O)N2CCC[C@H]2C(=O)N[C@H](CC(C)C)C(=O)N[C@@H](Cc2ccccc2)C(=O)N2CCC[C@@H]2C1=O | 1.1
CC(C)C[C@@H]1C(=O)N[C@@H](Cc2ccccc2)C(=O)N2CCC[C@@H]2C(=O)N[C@H](C)C(=O)N[C@H](CC(C)C)C(=O)N[C@@H](Cc2ccccc2)CC(=O)N2CCC[C@H]2C(=O)N1C | 0.44
CC(C)C[C@@H]1C(=O)N2CCC[C@H]2C(=O)N[C@H](CC(C)C)C(=O)N[C@@H](Cc2ccccc2)C(=O)N2CCC[C@H]2C(=O)N(C)[C@@H](C)C(=O)N(Cc2ccccc2)CC(=O)N1C | 3
CC(C)C[C@@H]1NC(=O)[C@H](CC(C)C)N(C)C(=O)[C@@H](C)NC(=O)[C@H]2CCCN2C(=O)[C@H](Cc2ccccc2)NC(=O)[C@H](CC(C)C)N(C)C(=O)[C@@H]2CCCN2C1=O | 1.9
CC(C)C[C@@H]1NC(=O)[C@@H](C)NC(=O)[C@H]2CCCN2C(=O)[C@H](Cc2ccccc2)NC(=O)CN(Cc2ccccc2)C(=O)[C@@H]2CCCN2C(=O)[C@H](CC(C)C)NC1=O | 0.4
CCCN1CC(=O)N[C@@H](CC(C)C)C(=O)N(C)[C@@H](CC(C)C)C(=O)N2CCC[C@@H]2C(=O)N(C)[C@@H](CC(C)C)C(=O)N[C@@H](Cc2ccccc2)C(=O)N2CCC[C@H]2C1=O | 8.1
CC(C)C[C@@H]1NC(=O)C[C@H](Cc2ccccc2)NC(=O)[C@H](Cc2ccccc2)NC(=O)[C@@H](CC(C)C)NC(=O)[C@H]2CCCN2C(=O)CN(Cc2ccccc2)C1=O | 4.8
CCCN1CC(=O)N(Cc2ccccc2)CC(=O)N[C@@H](CC(C)C)C(=O)N2CCC[C@@H]2C(=O)N(C)[C@H](CC(C)C)C(=O)N[C@@H](Cc2ccccc2)C(=O)N2CCC[C@H]2C1=O | 1.9
CC(C)C[C@@H]1NC(=O)[C@@H]2CCCN2C(=O)[C@@H](CC(C)C)N(C)C(=O)[C@H](CC(C)C)NC(=O)[C@H](C)N(C)C(=O)[C@H]2CCCN2C(=O)[C@H](Cc2ccccc2)NC1=O | 4.8
CC(C)C[C@H]1NC(=O)[C@H]2CCCN2C(=O)C[C@H](Cc2ccccc2)NC(=O)[C@@H](CC(C)C)NC(=O)[C@@H](C)NC(=O)[C@H](Cc2ccccc2)NC1=O | 0.98
CC(C)C[C@@H]1C(=O)N[C@@H](Cc2ccccc2)C(=O)N2CCC[C@@H]2C(=O)N(C)[C@H](C)C(=O)N[C@H](CC(C)C)C(=O)N[C@@H](Cc2ccccc2)CC(=O)N2CCC[C@H]2C(=O)N1C | 1.6

Excerpt, the final 2 entries:

SMILES | PAMPA (10^-6 cm/s)
CC(C)C[C@H]1NC(=O)[C@H]2CCCN2C(=O)C[C@H](Cc2ccccc2)NC(=O)[C@@H](CC(C)C)NC(=O)[C@@H](C)NC(=O)[C@H](Cc2ccccc2)NC1=O | 0.98
CC(C)C[C@@H]1C(=O)N[C@@H](Cc2ccccc2)C(=O)N2CCC[C@@H]2C(=O)N(C)[C@H](C)C(=O)N[C@H](CC(C)C)C(=O)N[C@@H](Cc2ccccc2)CC(=O)N2CCC[C@H]2C(=O)N1C | 1.6

Values of Townsend et al. 2020, doi:10.26434/chemrxiv.13335941.v1, as listed in CycPeptMPDB.